Biological target: juvenile hormone-binding protein (JHBP) (Bombyx mori, UniProt Q9U556)
Parameters: gene hJHBP

By UniProt entry, the sequences of proteins in these tests, tags left out.
UniProt Q9U556, entry or part of it: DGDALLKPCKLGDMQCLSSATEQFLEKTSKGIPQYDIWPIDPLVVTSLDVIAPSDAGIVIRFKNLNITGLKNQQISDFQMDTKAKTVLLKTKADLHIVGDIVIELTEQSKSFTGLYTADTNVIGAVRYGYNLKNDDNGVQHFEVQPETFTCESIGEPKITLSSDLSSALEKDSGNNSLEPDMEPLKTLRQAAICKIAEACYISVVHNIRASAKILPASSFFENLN

COC(=O)/C=C(\C)CC/C=C(\C)CC[C@H]1OC1(C)C [JH III, 3H-JH III]
radioligand binding (10 nM 3H-JH III, 800 nM JHBP, dextran-coated charcoal): Binding of 3H-JH III to JHBP was measured in the absence and presence of MPD.

— paper PMC3577830, “Crystal Structure of Silkworm Bombyx mori JHBP in Complex With 2-Methyl-2,4-Pentanediol: Plasticity of JH-Binding Pocket and Ligand-Induced Conformational Change of the Second Cavity in JHBP” (PLoS ONE, 2013)
